Laboratory results published in PMC9357092 (Clinical Cancer Research, 2022).

Assay: Whole-body-4Brain PBPK model simulation of plasma and CNS pharmacokinetics
Conditions: PBPK input

- fa (assigned based on observed data): 0.5
- Ka (first-order absorption rate constant, observed): 0.3
- Lag time (observed): 0.5 h
SMILES: CS(=O)(=O)CCNCc1ccc(-c2ccc3ncnc(Nc4ccc(OCc5cccc(F)c5)c(Cl)c4)c3c2)o1 [lapatinib]
